Experimental data from patent US11999802B2, “Compositions and methods for selective protein degradation” (Novartis AG, priority 2017, dated 2024).

Tested on: HilD-tagged CAR19 / FurON-CAR19
Assay type: cell-based
[1] = CAR19-16GS-HilD-tag (construct 769), 10 μM lenalidomide

Structure (SMILES): Nc1cccc2c1CN(C1CCC(=O)NC1=O)C2=O (stereo not shown) [lenalidomide, 3-(4-amino-1-oxoisoindolin-2-yl)piperidine-2,6-dione]
- degradation of FurON-CAR19 with the HilD tag (10 μM lenalidomide, 24 hours, 1 μM bazedoxifene): almost completely degraded
- time at which degradation was evident [1]: 4 h
- time to maximal degradation [1]: ≤ 8 h
- lowest concentration degrading CAR19-16GS-HilD-tag fusion protein (construct 769, Western blot): ≥ 100 nM
